Source: US5874442A, “Tricyclic amides useful for inhibition of G-protein function and for treatment of proliferative disease” (Schering-Plough Corporation, priority 1996, dated 1999)

Chains of the proteins cited; added tags and fusions are not shown.
UniProt Q02293, whole entry: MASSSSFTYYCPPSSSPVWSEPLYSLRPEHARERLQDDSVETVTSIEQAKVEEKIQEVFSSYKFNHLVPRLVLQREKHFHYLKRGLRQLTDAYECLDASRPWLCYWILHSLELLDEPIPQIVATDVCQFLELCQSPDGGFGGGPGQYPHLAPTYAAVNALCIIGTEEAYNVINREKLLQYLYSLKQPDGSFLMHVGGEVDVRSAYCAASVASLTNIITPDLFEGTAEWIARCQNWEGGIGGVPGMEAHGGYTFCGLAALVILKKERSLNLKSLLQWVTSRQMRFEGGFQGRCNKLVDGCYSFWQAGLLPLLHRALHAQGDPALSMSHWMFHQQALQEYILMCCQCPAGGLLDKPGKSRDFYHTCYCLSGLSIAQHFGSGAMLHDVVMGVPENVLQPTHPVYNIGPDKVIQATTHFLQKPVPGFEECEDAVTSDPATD

Target: T1, farnesyl protein transferase (FPT) (Rattus norvegicus, UniProt Q02293+Q04631)
T1 construct: were partially purified from rat brain by ammonium sulfate fractionation; from tissue; host or cells: rat brain (ammonium sulfate fractionation, Q-Sepharose)
Assay: In vitro enzyme assay: inhibition of farnesyl protein transferase (FPT), [3H]farnesyl transfer to Ras-CVLS
Format: biochemical
Details: Table 1; Ras-CVLS substrate, 30 minutes at room temperature
Experimental: 1. In vitro enzyme assays:
Inhibition of farnesyl protein transferase and geranylgeranyl protein transferase.
Human farnesyl protein transferase was also expressed in E. coli, using cDNA clones encoding both the a and b subunits. […] Human farnesyl protein transferase was partially-purified from the soluble protein fraction of E. coli as described above. […] Two forms of val^12 -Ha-Ras protein were prepared as substrates for these enzymes, differing in their carboxy terminal sequence. One form terminated in cysteine-valine-leucine-serine (Ras-CVLS) the other in cystein-valine-leucine-leucine (Ras-CVLL). Ras-CVLS is a substrate for the farnesyl protein transferase while Ras-CVLL is a substrate for geranylgeranyl protein transferase I. The cDNAs encoding these proteins were constructed so that the proteins contain an amino-terminal extension of 6 histidine residues. Both proteins were expressed in Escherichia coli and purified using metal chelate affinity chromatography. The radiolabelled isoprenyl pyrophosphate substrates, [^3 H]farnesyl pyrophosphate and [^3 H] geranylgeranyl pyrophosphate, were purchased from DuPont/New England Nuclear.
The reaction was allowed to proceed for 30 minutes at room temperature and then stopped with 0.5 ml of 4% sodium dodecyl sulfate (SDS) followed by 0.5 ml of cold 30% TCA. […] Percent inhibition was calculated relative to the DMSO vehicle control.

In the case of `NC(=O)N1CCC(CC(=O)N2CCC([C@H]3c4ncc(Br)cc4CCc4cc(Cl)cc(Br)c43)CC2)CC1` [Example 10], the IC50 is reported as 1.9 nM.
